This data set is described as follows: Toxicity in man, intramuscular injection. Type of data set: in vivo. The conditions noted are these: dose of 200 to 400 mg. An excerpt: The derivatives according to the invention have a very weak toxicity both for animals and man.

In the case of “Example 1: IFN-α (Hoffmann-Laroche) inactivated with 33 mM formaldehyde, 3 days 37° C., lysine added, dialyzed, lyophilized in doses”, the toxic effect result is listed as “did not produce any detectable toxic effect”.

These data come from patent US6455045B1, “Immunogenic compounds with in particular an anti-cytokine effect, preparation process, pharmaceutical compositions and kits containing them” (priority 1991, dated 2002).
